The results in this text go back to patent US20140322242A1, “MATERIALS AND METHODS FOR THE PREVENTION AND TREATMENT OF CANCER” (Icahn School of Medicine at Mount Sinai, priority 2010, published 2014).

By UniProt entry, the sequences of proteins in these tests, tags left out. Where a name states a change or a piece, a line headed by the entry shows the natural chain unless it says otherwise.
UniProt P12657: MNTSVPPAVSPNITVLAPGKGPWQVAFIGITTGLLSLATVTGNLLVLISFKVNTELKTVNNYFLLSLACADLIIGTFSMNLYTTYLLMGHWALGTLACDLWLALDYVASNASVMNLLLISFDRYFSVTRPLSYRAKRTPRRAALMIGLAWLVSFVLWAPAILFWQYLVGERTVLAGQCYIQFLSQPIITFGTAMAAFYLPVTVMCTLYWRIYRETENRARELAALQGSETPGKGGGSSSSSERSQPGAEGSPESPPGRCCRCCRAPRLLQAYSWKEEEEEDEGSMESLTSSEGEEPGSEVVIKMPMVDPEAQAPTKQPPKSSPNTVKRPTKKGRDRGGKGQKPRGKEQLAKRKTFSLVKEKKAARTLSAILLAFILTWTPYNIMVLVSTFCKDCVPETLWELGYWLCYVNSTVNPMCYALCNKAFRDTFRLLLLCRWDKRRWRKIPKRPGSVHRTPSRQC

Molecules are shown by their SMILES.

The experiment deals with stromal Chrm1 (Mus musculus, UniProt P12657). Particulars: carbachol; harvested at week 10. The procedure: A second cycle was administered at week four and mice were sacrificed one week later (five weeks after graft). For cholinergic experiments using the nu/nu Chrm1^tm1Stl+/+ and nu/nu Chrm1^tm1Stl−/− animals, mice were sacrificed at week six post-graft. For the survival study, grafted mice were treated as described hereinabove from week 4, every two weeks for up to 25 weeks or until death. Disease progression was monitored by bioluminescence scanner. […] One week later, mice received a second round of treatment and were then sacrificed at month four.

As to `C[N+](C)(C)CCOC(N)=O.[Cl-]` [carbachol, carbamoylcholine chloride], the “tumor behavior (basement membrane disruption, tumor epithelial cell proliferation)” value was “switched the tumor behavior to an invading phenotype”.
